Values of other authors, collected in patent US20110104272A1 (DEPOMED, INC., priority 2009, published 2011).

Details: water at 22° C.

solubility in water: 1000 to 5000 µg/mL
SMILES: CC(=O)Nc1ccc(O)cc1 [Acetaminophen, N-(4-hydroxyphenyl)acetamine]
